Patent publication US10188756B2, “Imaging histone deacetylases with a radiotracer using positron emission tomography” (THE GENERAL HOSPITAL CORPORATION, priority 2013, dated 2019)

Sequences of proteins named here, by UniProt entry; tags and fusion partners are left off. Residues count along the entry.
UniProt O15379, whole entry: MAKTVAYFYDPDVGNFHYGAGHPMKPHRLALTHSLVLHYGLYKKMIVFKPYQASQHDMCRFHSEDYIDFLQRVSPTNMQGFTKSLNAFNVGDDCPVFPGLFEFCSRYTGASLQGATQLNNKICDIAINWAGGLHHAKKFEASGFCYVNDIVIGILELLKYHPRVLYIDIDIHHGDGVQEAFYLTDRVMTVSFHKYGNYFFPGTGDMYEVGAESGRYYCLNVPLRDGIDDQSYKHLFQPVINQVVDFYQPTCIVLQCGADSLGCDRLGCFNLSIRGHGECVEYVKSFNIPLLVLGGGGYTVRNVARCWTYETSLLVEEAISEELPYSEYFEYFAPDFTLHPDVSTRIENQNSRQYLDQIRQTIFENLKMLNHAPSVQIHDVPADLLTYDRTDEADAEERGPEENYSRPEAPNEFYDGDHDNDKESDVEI
UniProt P56524, whole entry: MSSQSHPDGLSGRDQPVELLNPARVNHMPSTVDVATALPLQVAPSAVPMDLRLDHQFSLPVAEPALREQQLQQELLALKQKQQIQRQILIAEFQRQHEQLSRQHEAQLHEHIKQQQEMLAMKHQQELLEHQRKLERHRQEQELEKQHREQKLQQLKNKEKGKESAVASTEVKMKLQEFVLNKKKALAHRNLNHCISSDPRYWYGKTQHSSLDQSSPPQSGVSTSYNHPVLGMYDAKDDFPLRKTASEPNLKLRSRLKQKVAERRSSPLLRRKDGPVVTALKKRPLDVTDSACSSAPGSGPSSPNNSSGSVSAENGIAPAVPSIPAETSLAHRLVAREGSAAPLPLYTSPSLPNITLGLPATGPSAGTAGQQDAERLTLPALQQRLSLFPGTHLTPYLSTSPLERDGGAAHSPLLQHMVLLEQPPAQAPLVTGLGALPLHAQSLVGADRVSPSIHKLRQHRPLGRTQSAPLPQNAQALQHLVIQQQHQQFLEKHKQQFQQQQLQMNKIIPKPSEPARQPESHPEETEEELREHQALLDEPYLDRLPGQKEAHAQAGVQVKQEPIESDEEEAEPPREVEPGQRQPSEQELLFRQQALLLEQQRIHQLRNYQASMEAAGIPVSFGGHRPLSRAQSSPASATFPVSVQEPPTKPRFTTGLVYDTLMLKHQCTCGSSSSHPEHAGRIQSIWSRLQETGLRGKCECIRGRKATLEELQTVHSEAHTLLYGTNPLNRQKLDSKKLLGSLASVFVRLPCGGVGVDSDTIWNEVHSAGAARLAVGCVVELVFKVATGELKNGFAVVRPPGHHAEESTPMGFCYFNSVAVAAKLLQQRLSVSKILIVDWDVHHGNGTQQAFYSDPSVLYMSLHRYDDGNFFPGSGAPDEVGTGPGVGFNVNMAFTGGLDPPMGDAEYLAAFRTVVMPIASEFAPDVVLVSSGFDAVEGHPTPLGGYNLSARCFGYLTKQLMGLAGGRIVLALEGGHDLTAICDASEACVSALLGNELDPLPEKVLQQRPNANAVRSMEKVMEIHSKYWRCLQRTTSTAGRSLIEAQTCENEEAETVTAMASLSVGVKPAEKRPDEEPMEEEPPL
UniProt Q13547, whole entry: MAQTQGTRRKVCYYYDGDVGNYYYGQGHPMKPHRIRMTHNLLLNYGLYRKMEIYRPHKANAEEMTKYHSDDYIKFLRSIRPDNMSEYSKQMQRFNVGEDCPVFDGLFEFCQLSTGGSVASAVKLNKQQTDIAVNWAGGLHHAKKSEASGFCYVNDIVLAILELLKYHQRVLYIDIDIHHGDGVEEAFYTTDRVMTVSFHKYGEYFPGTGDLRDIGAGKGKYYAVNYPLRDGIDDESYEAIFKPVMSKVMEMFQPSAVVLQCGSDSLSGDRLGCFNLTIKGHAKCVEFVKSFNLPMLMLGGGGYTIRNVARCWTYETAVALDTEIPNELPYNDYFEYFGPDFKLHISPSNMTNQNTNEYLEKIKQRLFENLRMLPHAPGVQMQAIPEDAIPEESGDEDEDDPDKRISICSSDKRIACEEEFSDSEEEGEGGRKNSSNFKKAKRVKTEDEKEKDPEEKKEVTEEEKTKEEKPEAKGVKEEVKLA
UniProt Q9UKV0, whole entry: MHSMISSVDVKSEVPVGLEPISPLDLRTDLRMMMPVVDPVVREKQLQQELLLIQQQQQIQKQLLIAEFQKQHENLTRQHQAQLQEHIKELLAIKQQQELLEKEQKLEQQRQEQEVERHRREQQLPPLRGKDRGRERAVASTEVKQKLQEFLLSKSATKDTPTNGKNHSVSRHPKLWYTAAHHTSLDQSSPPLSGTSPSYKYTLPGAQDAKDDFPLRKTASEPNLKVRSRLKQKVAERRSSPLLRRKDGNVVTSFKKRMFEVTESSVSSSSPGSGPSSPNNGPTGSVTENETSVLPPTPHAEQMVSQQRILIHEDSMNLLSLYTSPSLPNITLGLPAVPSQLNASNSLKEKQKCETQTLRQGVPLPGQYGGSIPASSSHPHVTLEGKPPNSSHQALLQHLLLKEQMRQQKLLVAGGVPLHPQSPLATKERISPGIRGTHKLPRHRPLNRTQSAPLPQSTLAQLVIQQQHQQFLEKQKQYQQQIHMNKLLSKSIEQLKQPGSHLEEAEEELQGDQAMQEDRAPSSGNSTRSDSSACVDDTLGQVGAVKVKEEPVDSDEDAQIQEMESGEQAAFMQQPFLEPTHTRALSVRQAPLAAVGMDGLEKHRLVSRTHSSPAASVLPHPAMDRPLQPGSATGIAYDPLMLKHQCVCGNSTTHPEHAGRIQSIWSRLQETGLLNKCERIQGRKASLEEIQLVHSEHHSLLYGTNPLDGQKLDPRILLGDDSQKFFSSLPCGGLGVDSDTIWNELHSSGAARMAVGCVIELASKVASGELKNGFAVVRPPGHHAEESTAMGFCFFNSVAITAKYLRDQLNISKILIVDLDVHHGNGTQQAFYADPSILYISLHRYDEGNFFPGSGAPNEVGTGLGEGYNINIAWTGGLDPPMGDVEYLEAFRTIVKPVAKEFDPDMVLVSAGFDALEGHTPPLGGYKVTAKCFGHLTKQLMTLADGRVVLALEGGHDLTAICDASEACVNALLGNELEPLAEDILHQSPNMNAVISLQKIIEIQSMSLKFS
UniProt Q8WUI4, whole entry: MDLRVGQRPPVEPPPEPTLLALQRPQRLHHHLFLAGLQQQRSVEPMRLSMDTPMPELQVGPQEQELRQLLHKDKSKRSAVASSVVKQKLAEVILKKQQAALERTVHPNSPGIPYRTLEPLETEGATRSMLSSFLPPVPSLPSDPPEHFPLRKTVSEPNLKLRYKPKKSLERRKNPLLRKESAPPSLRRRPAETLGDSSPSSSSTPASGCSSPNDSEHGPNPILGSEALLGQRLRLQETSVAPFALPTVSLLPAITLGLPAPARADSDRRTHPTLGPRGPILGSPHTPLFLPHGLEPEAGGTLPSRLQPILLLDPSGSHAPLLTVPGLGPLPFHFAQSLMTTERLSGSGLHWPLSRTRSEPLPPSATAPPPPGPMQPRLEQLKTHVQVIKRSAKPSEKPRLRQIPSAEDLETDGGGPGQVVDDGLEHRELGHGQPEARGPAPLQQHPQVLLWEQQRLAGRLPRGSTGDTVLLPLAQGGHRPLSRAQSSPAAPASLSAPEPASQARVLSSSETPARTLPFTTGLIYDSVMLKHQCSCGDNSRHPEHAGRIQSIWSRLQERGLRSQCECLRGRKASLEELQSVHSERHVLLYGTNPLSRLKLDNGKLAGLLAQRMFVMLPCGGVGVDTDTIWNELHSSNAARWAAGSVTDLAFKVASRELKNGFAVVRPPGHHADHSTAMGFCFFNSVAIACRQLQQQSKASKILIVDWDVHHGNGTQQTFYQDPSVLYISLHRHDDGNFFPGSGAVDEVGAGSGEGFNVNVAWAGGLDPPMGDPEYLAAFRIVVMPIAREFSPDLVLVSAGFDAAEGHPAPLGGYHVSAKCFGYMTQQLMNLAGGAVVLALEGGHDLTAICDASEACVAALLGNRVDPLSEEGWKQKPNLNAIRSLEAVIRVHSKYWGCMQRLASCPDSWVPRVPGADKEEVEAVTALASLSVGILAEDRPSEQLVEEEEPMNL
UniProt Q9BY41, whole entry: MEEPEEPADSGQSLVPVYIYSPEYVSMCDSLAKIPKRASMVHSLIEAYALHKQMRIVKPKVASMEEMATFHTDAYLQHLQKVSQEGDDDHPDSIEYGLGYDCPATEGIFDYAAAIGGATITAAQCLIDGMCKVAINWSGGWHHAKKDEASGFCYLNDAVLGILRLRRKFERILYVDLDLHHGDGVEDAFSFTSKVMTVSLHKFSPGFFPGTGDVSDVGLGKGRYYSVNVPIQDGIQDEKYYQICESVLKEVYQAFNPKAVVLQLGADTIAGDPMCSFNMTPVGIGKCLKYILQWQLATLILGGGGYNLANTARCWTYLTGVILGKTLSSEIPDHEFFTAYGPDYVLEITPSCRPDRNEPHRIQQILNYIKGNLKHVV
UniProt Q9UBN7, whole entry: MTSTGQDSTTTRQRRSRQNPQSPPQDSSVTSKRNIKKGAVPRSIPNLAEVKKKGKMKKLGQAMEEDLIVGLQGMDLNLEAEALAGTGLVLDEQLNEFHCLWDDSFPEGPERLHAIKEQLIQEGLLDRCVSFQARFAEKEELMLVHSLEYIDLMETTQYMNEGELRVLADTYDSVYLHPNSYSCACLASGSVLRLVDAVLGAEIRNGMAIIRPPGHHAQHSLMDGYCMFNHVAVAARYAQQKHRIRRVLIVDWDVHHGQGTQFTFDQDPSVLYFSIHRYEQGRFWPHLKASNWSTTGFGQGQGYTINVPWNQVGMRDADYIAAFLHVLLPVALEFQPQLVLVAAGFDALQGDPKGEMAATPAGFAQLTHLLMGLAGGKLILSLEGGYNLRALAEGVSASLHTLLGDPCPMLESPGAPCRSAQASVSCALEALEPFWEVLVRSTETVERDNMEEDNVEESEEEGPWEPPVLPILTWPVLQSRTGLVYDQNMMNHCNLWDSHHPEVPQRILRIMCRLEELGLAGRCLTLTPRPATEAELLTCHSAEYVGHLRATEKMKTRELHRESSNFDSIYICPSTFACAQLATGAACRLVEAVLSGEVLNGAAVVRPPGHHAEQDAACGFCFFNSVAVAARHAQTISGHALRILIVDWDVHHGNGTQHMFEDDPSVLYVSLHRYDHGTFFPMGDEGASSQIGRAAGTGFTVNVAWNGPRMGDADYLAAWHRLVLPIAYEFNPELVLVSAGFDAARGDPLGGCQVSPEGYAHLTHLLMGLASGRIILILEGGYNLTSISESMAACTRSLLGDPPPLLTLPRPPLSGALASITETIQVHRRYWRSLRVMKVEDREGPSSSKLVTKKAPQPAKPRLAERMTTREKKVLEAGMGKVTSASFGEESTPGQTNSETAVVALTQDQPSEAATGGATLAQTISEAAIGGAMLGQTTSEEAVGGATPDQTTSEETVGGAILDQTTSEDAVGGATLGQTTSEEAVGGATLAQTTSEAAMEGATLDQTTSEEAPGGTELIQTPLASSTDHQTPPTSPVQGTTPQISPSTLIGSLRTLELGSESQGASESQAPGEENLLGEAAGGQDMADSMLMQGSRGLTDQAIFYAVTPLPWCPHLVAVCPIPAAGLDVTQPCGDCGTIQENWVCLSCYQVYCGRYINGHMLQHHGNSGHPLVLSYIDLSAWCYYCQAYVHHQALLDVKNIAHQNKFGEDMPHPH
UniProt Q9Y618, 395-489 partner limits assumed: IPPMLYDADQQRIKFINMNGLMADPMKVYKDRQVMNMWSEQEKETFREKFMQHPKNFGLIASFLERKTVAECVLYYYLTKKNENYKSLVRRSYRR

Experiments:
Assay in all cases: HDAC inhibition assay
HDAC5 = HDAC5 (Homo sapiens (Human), UniProt Q9UQL6); details: read-out: IC50 HDAC5
HDAC3 = HDAC3 (Homo sapiens (Human), UniProt O15379); details: read-out: IC50 HDAC3
HDAC4 = HDAC4 (Homo sapiens (Human), UniProt P56524); details: read-out: IC50 HDAC4
HDAC1 = HDAC1 (Homo sapiens (Human), UniProt Q13547); details: read-out: IC50 HDAC1
HDAC9 = HDAC9 (Homo sapiens (Human), UniProt Q9UKV0); details: read-out: IC50 HDAC9
HDAC7 = HDAC7 (Homo sapiens (Human), UniProt Q8WUI4); details: read-out: IC50 HDAC7
HDAC8 = HDAC8 (Homo sapiens (Human), UniProt Q9BY41); type: biochemical; details: read-out: IC50 HDAC8
HDAC6 = HDAC6 (Homo sapiens (Human), UniProt Q9UBN7); type: biochemical; details: read-out: IC50 HDAC6

Compound: CN(Cc1cccc(/C=C/C(=O)NO)c1)C12CC3CC(CC(C3)C1)C2
- IC50 (HDAC5): 244 nM
- IC50 (HDAC3): 32.7 nM
- IC50 (HDAC4): 2530 nM
- IC50 (HDAC1): 24 nM
- IC50 (HDAC9): > 20000 nM
- IC50 (HDAC7): > 40000 nM
- IC50 (HDAC8): 2230 nM
- IC50 (HDAC6): 16.5 nM
